## Ab-91 heavy chain CDR variants: yeast mating affinities

Source: Engelhart et al. 2022 (doi:10.1038/s41597-022-01779-4), MIT Lincoln Laboratory and A-Alpha Bio; data file from the FLAb repository.

Binding partner: SARS-CoV-2 spike HR2 peptide, sequence PDVDLGDISGINAS.

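Phage display of a naive human antibody library on the peptide gave the parent. Library AAYL51 holds single substitutions and randomly drawn double and triple substitutions in the CDRs. In AlphaSeq, yeast of one mating type display the scFv and yeast of the other type display the target. Pairs that bind mate more often; barcode pairs of the diploids are counted by sequencing. Each replicate has its own calibration line, from reference interactions of the BCL2 family. There are three technical replicates.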

Parent: Ab-91, a human scFv built as VL, the linker GGGGSGGGGSGGGGS, VH. Only the CDRs of the heavy chain vary.
VL: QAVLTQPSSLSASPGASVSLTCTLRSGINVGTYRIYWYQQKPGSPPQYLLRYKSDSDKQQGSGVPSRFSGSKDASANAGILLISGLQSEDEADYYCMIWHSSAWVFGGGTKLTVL
VH: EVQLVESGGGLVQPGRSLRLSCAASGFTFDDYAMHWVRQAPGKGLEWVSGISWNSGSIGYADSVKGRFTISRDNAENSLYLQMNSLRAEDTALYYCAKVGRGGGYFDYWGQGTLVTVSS

Each variant's VH is given in full.
This list gathers variants with a substitution at F29 (VH, numbered from residue 1).
Numbers give log10(Kd / nM), so 0 is 1 nM and 3 is 1 µM. Smaller is tighter.
Averages over replicates are reported, and they cover detected replicates only.
"nd" marks a missing value. The strain was present, yet no cells mated with the target were sequenced in any replicate, which points to weak or no binding.
Three control strains display no target. For library AAYL51, 21% of the pairings with them gave a signal, with a median of 4.54 and one signal in twenty below 3.26, so weak values seen in few replicates may be background.

* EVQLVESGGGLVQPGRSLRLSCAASGFTHDDYAMHWVRQAPGKGLEWVSGISWNSGSIGYADSVKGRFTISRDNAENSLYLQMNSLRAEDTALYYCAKVGRGGGEFDYWGQGTLVTVSS -> nd (0 of 3 replicates)
* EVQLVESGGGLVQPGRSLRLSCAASGFTEDDYAMHWVRQAPGKGLEWVSGISWNSHSIGYADSVKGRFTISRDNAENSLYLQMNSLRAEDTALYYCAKVGRGGDYFDYWGQGTLVTVSS -> 5.23 (1 of 3 replicates)
* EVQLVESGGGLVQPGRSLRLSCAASGFTEDDYAMHWVRQAPGKGLEWVSGISWNSWSIGYADSVSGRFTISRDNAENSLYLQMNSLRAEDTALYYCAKVGRGGGYFDYWGQGTLVTVSS -> nd (0 of 3 replicates)
* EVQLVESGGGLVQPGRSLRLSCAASGFTRDDYAMHWVRQAPGKGLEWVSGISLNSGSIGDADSVKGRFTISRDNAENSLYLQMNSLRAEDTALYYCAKVGRGGGYFDYWGQGTLVTVSS -> 3.93 (1 of 3 replicates)
* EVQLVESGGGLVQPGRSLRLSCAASGFPNDDYAMHWVRQAPGKGLEWVSGISWNSGSIGYADSVKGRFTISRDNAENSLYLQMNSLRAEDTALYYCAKVGRLGGYFDYWGQGTLVTVSS -> nd (0 of 3 replicates)
* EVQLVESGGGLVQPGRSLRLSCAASGCTWDDYAMHWVRQAPGKGLEWVSGISWNSGSIGYADSVKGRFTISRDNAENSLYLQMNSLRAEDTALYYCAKVGRGGGYFIYWGQGTLVTVSS -> 4.61 (1 of 3 replicates)
* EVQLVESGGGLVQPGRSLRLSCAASGFTNDDYVMHWVRQAPGKGLEWVSGISWNSGSIWYADSVKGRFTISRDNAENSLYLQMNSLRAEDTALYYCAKVGRGGGYFDYWGQGTLVTVSS -> nd (0 of 3 replicates)
* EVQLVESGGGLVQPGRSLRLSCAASGFTTDDYAMHWVRQAPGKGLEWVSGISWNSGSIGYADIVKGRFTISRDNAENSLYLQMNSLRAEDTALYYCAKVGRGGGYFDYWGQGTLVTVSS -> nd (0 of 3 replicates)
* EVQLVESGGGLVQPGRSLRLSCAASGFTHDDYAMHWVRQAPGKGLEWVSGISWNSGSIGYADSFKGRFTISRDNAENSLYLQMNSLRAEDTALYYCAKVGRGGGYFLYWGQGTLVTVSS -> 4.22 (1 of 3 replicates)
* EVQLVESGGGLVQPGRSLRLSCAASGFTTDDYAMHWVRQAPGKGLEWVSGISWNSGSGGYADSVKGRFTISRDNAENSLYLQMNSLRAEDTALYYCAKVGRNGGYFDYWGQGTLVTVSS -> 4.94 (2 of 3 replicates)
* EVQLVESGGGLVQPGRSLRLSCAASGFTGDDYVMHWVRQAPGKGLEWVSGISWNEGSIGYADSVKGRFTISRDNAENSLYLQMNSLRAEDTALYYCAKVGRGGGYFDYWGQGTLVTVSS -> nd (0 of 3 replicates)
* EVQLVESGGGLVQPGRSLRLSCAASGFTQDDYLMPWVRQAPGKGLEWVSGISWNSGSIGYADSVKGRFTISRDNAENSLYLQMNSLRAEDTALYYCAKVGRGGGYFDYWGQGTLVTVSS -> 2.85 (1 of 3 replicates)
* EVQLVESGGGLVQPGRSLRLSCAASGFTKDDYAMHWVRQAPGKGLEWVSGISWNSGSIGYAQSVKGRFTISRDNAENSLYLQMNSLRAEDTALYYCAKVGRGGGYFDYWGQGTLVTVSS -> 1.72 (3 of 3 replicates)
* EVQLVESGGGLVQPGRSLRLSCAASGFTHDDYAMHWVRQAPGKGLEWVSGISWNSGSIGYADGVKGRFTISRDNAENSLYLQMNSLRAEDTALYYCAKVGRGGGYFDHWGQGTLVTVSS -> nd (0 of 3 replicates)
* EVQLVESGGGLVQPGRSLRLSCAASGKTRDDYAMHWVRQAPGKGLEWVSGISWNSGSIGYADSVKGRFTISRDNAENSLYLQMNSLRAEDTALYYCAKVGRGGGYFDYWGQGTLVTVSS -> 5.31 (2 of 3 replicates)
* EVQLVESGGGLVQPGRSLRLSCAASGFTVDDYAMHWVRQAPGKGLEWVSGISWNSGSIGYADSVVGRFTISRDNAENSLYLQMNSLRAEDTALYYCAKVGRGPGYFDYWGQGTLVTVSS -> 4.34 (1 of 3 replicates)
* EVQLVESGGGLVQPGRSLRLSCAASGFTNDMYAMHWVRQAPGKGLEWVSGISWNSGSIGYADRVKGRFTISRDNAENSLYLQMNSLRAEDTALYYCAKVGRGGGYFDYWGQGTLVTVSS -> 4.19 (1 of 3 replicates)
* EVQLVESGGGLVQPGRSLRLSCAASGFTPDDYAMHWVRQAPGKGLEWVSGISWNSGSIGFADSVKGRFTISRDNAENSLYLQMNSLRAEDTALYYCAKVGRGGGYFDQWGQGTLVTVSS -> 4.59 (2 of 3 replicates)
* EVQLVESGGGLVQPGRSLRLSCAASGFTVDDYAMHWVRQAPGKGLEWVSGISWNSGSIVYADSVKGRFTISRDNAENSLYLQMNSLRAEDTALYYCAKVGRGTGYFDYWGQGTLVTVSS -> nd (0 of 3 replicates)
* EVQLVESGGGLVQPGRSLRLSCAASGFTSDDYAMHWVRQAPGKGLEWVSGISWNSGSIGYADSVKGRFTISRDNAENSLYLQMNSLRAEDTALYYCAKVGRGQGYFDMWGQGTLVTVSS -> 2.74 (1 of 3 replicates)
* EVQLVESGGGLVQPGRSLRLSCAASGFTADDYAMQWVRQAPGKGLEWVSGISWNSGSIGYADSVKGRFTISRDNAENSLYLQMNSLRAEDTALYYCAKVGRGGRYFDYWGQGTLVTVSS -> 5.44 (3 of 3 replicates)
* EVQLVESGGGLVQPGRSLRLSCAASGFTPDDYAMHWVRQAPGKGLEWVSGISWPGGSIGYADSVKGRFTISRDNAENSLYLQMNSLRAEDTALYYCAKVGRGGGYFDYWGQGTLVTVSS -> 4.29 (1 of 3 replicates)
* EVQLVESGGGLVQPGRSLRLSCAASGFTGDDYAMHWVRQAPGKGLEWVSGISPNSGNIGYADSVKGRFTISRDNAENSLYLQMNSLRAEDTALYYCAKVGRGGGYFDYWGQGTLVTVSS -> 4.05 (1 of 3 replicates)
* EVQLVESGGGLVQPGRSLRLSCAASGFTLDDYCMHWVRQAPGKGLEWVSGISWNSGSIGYADQVKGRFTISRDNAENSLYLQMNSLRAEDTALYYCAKVGRGGGYFDYWGQGTLVTVSS -> 4.49 (2 of 3 replicates)
* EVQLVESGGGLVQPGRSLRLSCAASGFTNDDYAMHWVRQAPGKGLEWVSGISWNSGSIGYADSVKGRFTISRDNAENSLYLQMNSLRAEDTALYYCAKVKRGGGYFDWWGQGTLVTVSS -> nd (0 of 3 replicates)

For reference, 2 entries of the list once more:

VH,mean log10 Kd (nM),seen in
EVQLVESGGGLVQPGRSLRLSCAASGFTGDDYAMHWVRQAPGKGLEWVSGISPNSGNIGYADSVKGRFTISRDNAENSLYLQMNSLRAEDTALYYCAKVGRGGGYFDYWGQGTLVTVSS,4.05,1 of 3
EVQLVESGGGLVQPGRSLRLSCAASGFTTDDYAMHWVRQAPGKGLEWVSGISWNSGSIGYADIVKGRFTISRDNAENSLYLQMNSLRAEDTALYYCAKVGRGGGYFDYWGQGTLVTVSS,nd,0 of 3